## OPERA 2.9 data: logP (octanol/water) values

Values as listed in the OPERA 2.9 repository of K. Mansouri.

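The numbers are reported measurements, compiled and curated for the OPERA QSAR suite. One number stands for a compound and property, with no spread given. Conditions of the individual experiments are not part of the data. Where a salt, mixture or single isomer is drawn, the source does not say that exactly this form was tested. Some entries may be limits or estimates that an upstream database listed as plain numbers.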

logP is the log10 of the octanol-water partition coefficient; higher is more lipophilic. Cells with "–" have no entry in this list. "via" names the databases from which the curators took the value.

{"smiles": "CCOC(=O)C(C)O", "stereo": "configuration not stated", "name": "Ethyl lactate", "logP": "0.7", "via": "eChemPortal"}
{"smiles": "CC[N+](C)(CC)CC", "name": "N,N-diethyl-N-methylethanaminium", "logP": "-2.13", "via": "OCHEM"}
{"smiles": "COc1ccccc1N1CCN(CCNC(=S)C2CCCCC2)CC1", "logP": "3.7", "via": "OCHEM"}
{"smiles": "O=C([O-])CC[n+]1ccccc1", "name": "3-(Pyridin-1-ium-1-yl)propanoate", "logP": "-1.35", "via": "eChemPortal"}
{"smiles": "CCCCCCCCOC(=O)CCCCCC", "name": "Octyl heptanoate", "logP": "6.11", "via": "OCHEM"}
{"smiles": "CC(=O)CC(=O)Nc1ccccc1", "name": "Acetoacetanilide", "logP": "0.93", "via": "eChemPortal"}
{"smiles": "CCC[SiH](C)C", "name": "Dimethylpropylsilane", "logP": "3.22", "via": "OCHEM"}
{"smiles": "ClCCOCCOCCCl", "name": "1,2-Bis(2-chloroethoxy)ethane", "logP": "1.07", "via": "eChemPortal"}
{"smiles": "O=C1OC2(c3ccc([O-])cc3Oc3cc([O-])ccc32)c2ccccc21.[Na+].[Na+]", "name": "Fluorescein sodium", "logP": "0.67", "via": "eChemPortal"}
{"smiles": "Clc1ccc2cncnc2c1", "name": "7-chloroquinazoline", "logP": "1.74", "via": "OCHEM"}
{"smiles": "O=S(=O)([O-])c1cc([O-])c(/N=N/c2c([O-])ccc3ccccc23)c2ccccc12.O=S(=O)([O-])c1cc([O-])c(/N=N/c2c([O-])ccc3ccccc23)c2ccccc12.[Cr+3].[H+].[Na+].[Na+]", "name": "C.I. Acid Blue 193", "logP": "-1.01", "via": "eChemPortal"}
{"smiles": "Br.CCCCCCCOc1ccccc1/N=C(\\[O-])OCC[N+]1(CCCCCC)CCCCC1", "logP": "5.38", "via": "OCHEM"}
{"smiles": "O=C1c2ccc3c4ccc5c6c(ccc(c7ccc(c2c37)C(=O)N1c1ccc(N=Nc2ccccc2)cc1)c64)C(=O)N(c1ccc(N=Nc2ccccc2)cc1)C5=O", "name": "C.I. Pigment Red 178", "logP": "1", "via": "eChemPortal"}
{"smiles": "O=C(O)c1c(O)cc(O)cc1O", "name": "Benzoic acid, 2,4,6-trihydroxy-", "logP": "1.62", "via": "OCHEM"}
{"smiles": "O=C(O[C@H]1C[C@H]2CC3C[C@@H](C1)[N@@]2CC3=O)c1c[nH]c2ccccc12", "name": "Dolasetron", "logP": "2.1", "via": "PubChem"}
{"smiles": "COC[P+](c1ccccc1)(c1ccccc1)c1ccccc1.[Cl-]", "name": "(Methoxymethyl)(triphenyl)phosphanium chloride", "logP": "-1.17", "via": "eChemPortal"}
{"smiles": "COc1ccc(C(=O)Nc2ccc3nn(C4CCCC4)nc3c2)cc1", "name": "N-(2-Cyclopentylbenzotriazol-5-yl)-4-methoxybenzamide", "logP": "4.03", "via": "OCHEM"}
{"smiles": "C=CC1CCC(O)C(O)C1", "stereo": "configuration not stated", "name": "4-Ethenylcyclohexane-1,2-diol", "logP": "0.63", "via": "OCHEM"}
{"smiles": "C[C@]12C=CC(=O)C=C1CC[C@H]1[C@@H]3CC[C@](O)(C(=O)CO)[C@@]3(C)C[C@H](O)[C@@]12F", "name": "Isoflupredone", "logP": "1.51", "via": "OCHEM"}
{"smiles": "CC(=O)C1=C(C)[C@@H]2C[C@@]3(C1)[C@H](C)CC[C@H]3C2(C)C", "name": "Acetylcedrene", "logP": "5.75", "via": "OCHEM"}
{"smiles": "CCCCCCCCCCCCCCCCCC[N+](C)(C)Cc1ccccc1.[Cl-]", "name": "N,N-Dimethyl-N-benzyl-N-octadecylammonium chloride", "logP": "3.23", "via": "PubChem"}
{"smiles": "COc1ccccc1N1CCN(CCCCc2ccc(F)cc2)CC1", "name": "1-[4-(4-Fluorophenyl)butyl]-4-(2-methoxyphenyl)-piperazine", "logP": "4.8", "via": "OCHEM"}
{"smiles": "CC(C)C(C)N", "stereo": "configuration not stated", "name": "1,2-Dimethylpropylamine", "logP": "1.1", "via": "OCHEM"}
{"smiles": "CCC1(O)CC2CN(CCc3c([nH]c4ccccc34)C(C(=O)OC)(c3cc4c(cc3OC)N(C=O)C3C(O)(C(=O)OC)C(OC(C)=O)C5(CC)C=CCN6CCC43C65)C2)C1.O=S(=O)(O)O", "stereo": "configuration not stated", "name": "Vincristine sulfate", "logP": "2.82", "via": "OCHEM"}
{"smiles": "CCCCCCc1ccc(-c2ccc(C#N)cc2)cc1", "name": "4-Hexyl-4'-cyanobiphenyl", "logP": "6.09", "via": "OCHEM"}
{"smiles": "CC(C)CC(=O)CC(C)C", "name": "Diisobutyl ketone", "logP": "3.71", "via": "eChemPortal"}
{"smiles": "O=S(=O)([O-])c1cccc(/N=N/c2ccc(/N=N/c3ccc(Nc4ccccc4)c4c(S(=O)(=O)[O-])cccc34)c3ccccc23)c1.[Na+].[Na+]", "name": "C.I. Acid Blue 113", "logP": "-1.16", "via": "eChemPortal"}
{"smiles": "CC[P+](c1ccccc1)(c1ccccc1)c1ccccc1.[Br-]", "name": "Phosphonium, ethyltriphenyl-, bromide (1:1)", "logP": "-0.044", "via": "eChemPortal"}
{"smiles": "CCCCCCCCCCc1ccc(N)cc1", "name": "4-Decylaniline", "logP": "6.09", "via": "OCHEM"}
{"smiles": "CC(=O)c1ccc2ccccc2c1", "name": "2'-Acetonaphthone", "logP": "2.678", "via": "eChemPortal"}
{"smiles": "CC(=O)N[C@@H](CCCCN)C(N)=O", "name": "acetyl-lysine amide", "logP": "-2.82", "via": "OCHEM"}
{"smiles": "N[C@@H](Cc1cc(I)c(Oc2ccc(O)c(I)c2)c(I)c1)C(=O)O", "name": "3,5,3'-Triiodothyronine", "logP": "0.93", "via": "PubChem"}
{"smiles": "C=CCOC(=O)CC(C)=O", "name": "Allyl acetoacetate", "logP": "1.4", "via": "eChemPortal"}
{"smiles": "O=C(O)[C@@H]1C[C@@H](O)CN1", "name": "Hydroxyproline", "logP": "-3.17", "via": "OCHEM, PubChem"}
{"smiles": "CC(=O)[O-].CN(C)c1ccc(/C=C/C2=[N+](C)c3ccccc3C2(C)C)cc1", "logP": "-0.705", "via": "eChemPortal"}
{"smiles": "NC(=O)c1ccc[n+](C2OC(COP(=O)([O-])OP(=O)(O)OCC3OC(n4cnc5c(N)ncnc54)C(OP(=O)([O-])[O-])C3O)C(O)C2O)c1.[Na+].[Na+]", "stereo": "configuration not stated", "name": "Disodium NADP", "logP": "-4.4", "via": "eChemPortal"}
{"smiles": "CCCn1nc2ccccc2n1", "name": "2-Propylbenzotriazole", "logP": "2.53", "via": "OCHEM"}
{"smiles": "Clc1ccc(-c2cccc(Cl)c2Cl)c(Cl)c1", "logP": "5.76", "via": "OCHEM"}
{"smiles": "O=P([O-])([O-])OCC(O)CO.[Mg+2]", "stereo": "configuration not stated", "name": "Magnesium 2,3-dihydroxypropyl phosphate", "logP": "-1.7", "via": "eChemPortal"}
{"smiles": "CCCCC[C@H](O)CC[C@@H]1[C@H]2Cc3cccc(OCC(=O)O)c3C[C@H]2C[C@H]1O", "name": "Treprostinil", "logP": "4.1", "via": "PubChem"}

The 4 highest values of logP among the entries above:

| structure (SMILES) | name | logP | via |
|---|---|---|---|
| CCCCCCCCOC(=O)CCCCCC | Octyl heptanoate | 6.11 | OCHEM |
| CCCCCCCCCCc1ccc(N)cc1 | 4-Decylaniline | 6.09 | OCHEM |
| CCCCCCc1ccc(-c2ccc(C#N)cc2)cc1 | 4-Hexyl-4'-cyanobiphenyl | 6.09 | OCHEM |
| Clc1ccc(-c2cccc(Cl)c2Cl)c(Cl)c1 | – | 5.76 | OCHEM |